Here are results for 100 compounds from PubChem BioAssay AID488896 (Broad Institute, 2010).

Sequences of proteins named here, by UniProt entry; tags and fusion partners are left off. A change or cut given only in a name is not applied to a line headed by its entry.
UniProt Q61009: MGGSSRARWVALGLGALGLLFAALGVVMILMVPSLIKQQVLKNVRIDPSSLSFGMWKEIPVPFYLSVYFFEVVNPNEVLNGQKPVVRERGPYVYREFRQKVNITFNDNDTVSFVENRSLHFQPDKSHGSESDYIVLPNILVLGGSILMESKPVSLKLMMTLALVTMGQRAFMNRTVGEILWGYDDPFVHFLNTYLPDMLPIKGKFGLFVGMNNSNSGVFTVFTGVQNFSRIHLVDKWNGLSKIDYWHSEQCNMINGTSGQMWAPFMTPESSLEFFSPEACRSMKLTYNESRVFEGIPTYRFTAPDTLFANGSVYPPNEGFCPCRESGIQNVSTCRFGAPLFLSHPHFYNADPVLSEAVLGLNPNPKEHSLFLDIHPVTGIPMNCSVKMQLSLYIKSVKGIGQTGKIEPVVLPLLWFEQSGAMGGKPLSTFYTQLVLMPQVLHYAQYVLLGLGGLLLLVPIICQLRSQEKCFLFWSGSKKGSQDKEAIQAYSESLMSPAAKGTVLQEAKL

Molecules are shown by their SMILES. The entries are a selection whose mix differs from that of the whole data set. The source made the active and inactive calls.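 How the source made its calls: active means mean replicate inhibition of at least 70% and a set share of replicates each scoring 70 or more; inconclusive means meets just one of the two criteria; inactive means fails both criteria.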

The assay addresses Scavenger receptor class B member 1 (Mus musculus) (UniProt Q61009). The assay is described as follows: mouse SR-BI DiI-HDL uptake blockers – ldlA[mSR-BI] cells, fluorescence, single point, primary screen (AID 488896).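 Further: 0% = median of neutral control wells and 100% = median of positive control wells.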 The note with it: ldlA[mSR-BI] CHO cells, 3 h, at 12.5 µM, stronger effect = higher value.
Turning to `O=[N+]([O-])c1ccc(Nc2ccc(Oc3ccc([N+](=O)[O-])cc3[N+](=O)[O-])cc2)c([N+](=O)[O-])c1`, the inhibition was inactive: -8.64%. For `O=P(Nc1ccccn1)(c1cccc2ccccc12)c1cccc2ccccc12` the value was inactive: 0.121%; for `Cc1cc(SC(NC=O)C(Cl)(Cl)Cl)ncn1` (stereo not given), inactive: -11.3%; for `CCOC(=O)Nc1cccc([As](=O)(O)O)c1`, inactive: -21%. For `CCCCOc1ccc(C(=O)NCC2(N3CCCCC3)CCCCC2)cc1OC` the value was inactive: -6.27%; for `Cc1cc(SC(NC(=O)c2ccccc2)C(Cl)(Cl)Cl)nc(C(C)C)n1` (stereo not given), inactive: -15.8%; for `CC1CCNP(=O)(N(CCCl)CCCl)O1` (stereo not given), inactive: -16.2%.

For the compound `CCOC(=O)Nc1ccc([As](=O)(O)O)c(O)c1`, the inhibition is inactive: 7.21%. For `CCC(C)N(CC(C)C)C(=S)SC(NC(C)=O)C(Cl)(Cl)Cl` (stereo not given) the value was inactive: 27.5%; for `CCOC(=O)c1ccc(NC(=O)C(C)(CCl)SC)cc1` (stereo not given), inactive: 4.36%. For `O=C(OC1CN2CCC1CC2)c1cccc([N+](=O)[O-])c1` (stereo not given) the value was inactive: -8.06%. With `O=C(Nc1ccncc1[N+](=O)[O-])c1ccc([N+](=O)[O-])cc1[N+](=O)[O-]`, the inhibition is inactive: -6.42%. As to `COP1(=S)c2c(C)nn(CCC#N)c2N=C(c2ccc(F)cc2)N1C` (stereo not given), the inhibition is inactive: 20.1%.

`COc1ccc(N/C(=N/P(=O)(N2CCOCC2)N2CCOCC2)N2CCOCC2)cc1`: the inhibition was inactive: -26.5%.

Turning to `O=[N+]([O-])c1cc(Oc2ccc([N+](=O)[O-])cc2C(F)(F)F)cc([N+](=O)[O-])c1`, the inhibition is inactive: 40.3%.

Regarding `COc1ccc2nc(NP(=O)(c3ccccc3)c3ccccc3)sc2c1`, the inhibition was inactive: 3.04%.

In the case of `COc1cc(I)ccc1[As](=O)(O)O`, the inhibition is inactive: 5.99%. For `O=P1(N(CCCl)CCCl)OCCCN1CCCl` (stereo not given) the value was inactive: -0.976%; for `O=P1(N(CCCl)CCCl)Nc2ccccc2N1`, inactive: -25.2%. As for `O=C(OC1CN2CCC1CC2)C12CC3CC(CC(C3)C1)C2` (stereo not given), the figure is inactive: 0.382%; as for `Cc1cc(=O)[nH]c(N[N+](=O)[O-])n1`, inactive: -3.21%. In the case of `Cc1c2c(nc3ccccc13)SC(C(Cl)Cl)C2` (stereo not given), the inhibition was inactive: 3.33%.

Consider `CCN(CC)C(=S)SC(NC=O)C(Cl)(Cl)Cl` (stereo not given), for which the inhibition was inactive: -5.71%. As to `O=C(OC1CN2CCC1CC2)c1cccc2[nH]cnc12` (stereo not given), the inhibition is inactive: -9.54%.

Take `CC(C)NC(=O)NP(=O)(Oc1ccccc1)Oc1ccccc1`: the inhibition is inactive: 1.72%. As for `O=[N+]([O-])c1cc([N+](=O)[O-])c(-c2ccn[nH]2)s1`, the figure is inactive: -14.1%. For `CC(C)c1ccc(OP(=O)(Nc2ccccn2)Oc2ccccc2F)cc1` (stereo not given) the value was inactive: -12.9%; for `COC(=O)C1(C)COP(=O)(N2CCCCCC2)OC1` (stereo not given), inactive: -17.3%; for `ClCCSc1nnc(-c2cccnc2)o1`, inactive: -15.3%. For the compound `Cc1ccc2nc3c(c(C)c2c1)CC(C(Cl)Cl)S3` (stereo not given), the inhibition was inactive: 5.32%.

On to `Cc1ccc(OP(=O)(Nc2ccc([N+](=O)[O-])cn2)Oc2ccc(C)cc2)cc1`, for which the inhibition was inactive: -8.77%. Regarding `O=[As](O)(c1ccc(O)cc1)c1ccccc1O`, the inhibition is inactive: -35.6%. As for `C[As](=O)(O)c1cccc(C(=O)O)c1`, the inhibition is inactive: -11.3%.

`COc1cc(C(=O)NCC2(N3CCOCC3)CCCCC2)ccc1OCC(C)C`: the inhibition was inactive: 21.6%. On to `O=[N+]([O-])c1ccc(-c2cc([N+](=O)[O-])c(O)c([N+](=O)[O-])c2)cc1`, for which the inhibition is inactive: -14.2%. For `CN(C)C(=O)c1cc([N+](=O)[O-])cc2c1-c1c(cc([N+](=O)[O-])cc1[N+](=O)[O-])C2=O` the value was inactive: 5.49%; for `O=[N+]([O-])c1ccc2c(c1)nnn2O`, inactive: -3%; for `CN(C(=O)Cc1ccc(Cl)c(Cl)c1)[C@H]1CC[C@@]2(CCCO2)C[C@@H]1N1CCCC1`, inactive: -12.4%. `N#CCCN(C(=O)COC(=O)C(O)(c1ccccc1)c1ccccc1)c1ccc(F)cc1`: the inhibition was inactive: -5.9%. Turning to `CCOP1(=S)c2c(C)nn(CCC#N)c2N=C(c2ccc(F)cc2)N1C` (stereo not given), the inhibition was inactive: 27.3%. As for `CN(C(=O)Cc1ccccc1)[C@@H]1CC[C@]2(CCCO2)C[C@H]1N1CCCC1`, the figure is inactive: 3.6%; as for `NC(=O)Nc1ccc([As](=O)(O)O)cc1`, inactive: -5.85%; as for `Nc1ccccc1[As](=O)(O)c1ccccc1`, inactive: -7.39%. For `O=C(O)COc1ccc([As](=O)(O)O)cc1[N+](=O)[O-]` the value was inactive: 1.32%. For `CCOP1(=S)c2c(C)nn(CCC#N)c2N=C(c2ccccc2F)N1C` (stereo not given) the value was inactive: 15.4%.

`O=P(Nc1nccs1)(c1ccccc1)c1nc2ccccc2s1` (stereo not given): the inhibition is inactive: 10.4%. As for `O=P(Nc1nccs1)(Oc1ccccc1)Oc1ccccc1`, the figure is inactive: -8.19%; as for `COc1cc(C2NCCC3(OCCO3)C2(C)C)cc(OC)c1OC` (stereo not given), inactive: -6.93%; as for `CCOP(=O)(Nc1cccc2ccccc12)OCC`, inactive: 4.58%.

Turning to `CCCOP(=S)(Nc1nc(N)cc(=O)[nH]1)OCCC`, the inhibition was inactive: -31.9%. For `Nc1cccc2c([As](=O)(O)O)cccc12` the value was inactive: 70%; for `O=[As](O)(c1cccc(O)c1)c1cccc(O)c1`, inactive: 3.64%.

Turning to `Cc1cccc(OCC(=O)OC2CN3CCC2CC3)c1` (stereo not given), the inhibition was inactive: -28.3%. As for `COc1cc(C(=O)NCC2(N3CCOCC3)CCCCC2)cc(Cl)c1OC(C)C`, the inhibition is inactive: 25.4%. As for `O=[As](O)(O)c1cccnc1`, the figure is inactive: -22.2%; as for `CS(=O)(=O)c1ccc(Cl)c(NC(=O)COC(=O)C(O)(c2ccccc2)c2ccccc2)c1`, inactive: 23.8%; as for `O=C(OC1CN2CCC1CC2)c1ccc(Cl)cc1` (stereo not given), inactive: -5.91%. Consider `CC1(CBr)Cn2c(nc3ccccc3c2=O)S1` (stereo not given), for which the inhibition is inactive: -10%. On to `CC(C)/C=N\N=C(\N)N[N+](=O)[O-]`, for which the inhibition is inactive: 2.89%. As for `CN(C(=O)Cc1ccc(Cl)c(Cl)c1)[C@@H]1CCCC[C@H]1N1CCCC1`, the inhibition was inactive: -3.54%. `COc1ccccc1CNC(=O)COC(=O)C(O)(c1ccccc1)c1ccccc1`: the inhibition is inactive: 2.54%. On to `Clc1n[nH]nc1-c1nn[nH][15n]1`, for which the inhibition is inactive: -15.6%. For `CC(C)(C)C(=O)NC(Sc1ncccn1)C(Cl)(Cl)Cl` (stereo not given) the value was inactive: -5.07%; for `CCOP(=O)(Nc1ccc(C)cn1)OCC`, inactive: -17.8%; for `O=P1(Nc2ccccn2)COc2ccccc2OC1`, inactive: -5.59%. On to `CCC1=CC2Cc3nc4ccc(Cl)cc4c(N)c3C(C1)C2` (stereo not given), for which the inhibition is inactive: -11%. As for `CCOP(=O)(NC(=NC(C)c1ccccc1)NC(C)c1ccccc1)OCC` (stereo not given), the figure is inactive: 2.2%. For `O=P1(Nc2ccc(Br)cn2)COc2ccccc2OC1` the value was inactive: -8.65%. As for `NS(=O)(=O)c1cccc(NC(=O)COC(=O)C(O)(c2ccccc2)c2ccccc2)c1`, the inhibition was inactive: 2.74%.

Regarding `O=[As](O)(c1cccs1)c1cccs1`, the inhibition is inactive: -15.6%. For `Nc1cccc([As](=O)(O)c2ccccc2)c1` the value was inactive: -22.4%; for `O=P1(Nc2ncccn2)COc2ccccc2OC1`, inactive: 29.9%; for `O=C(/C=C/c1ccccc1)OC1CN2CCC1CC2` (stereo not given), inactive: -5.84%. For `CCCC1OP(=O)(Nc2ccccc2)OCC1CC` (stereo not given) the value was inactive: -5.51%. For `CN(C)C1(CNC(=O)c2ccc(S(C)(=O)=O)cc2)CCCCC1` the value was inactive: -7.09%. As for `Cc1nn(-c2ccccc2)c2c1P(=O)(N1CCOCC1)N(C)C(c1ccccc1)=N2` (stereo not given), the inhibition was inactive: -22.1%. For `CC1CCC(C(C)C)C(OP(=O)(Nc2ccccn2)c2ccccc2)C1` (stereo not given) the value was inactive: -9.44%; for `Cc1ccc(C(=O)OC2CN3CCC2CC3)cc1` (stereo not given), inactive: -47%. With `C(Cc1nn[nH]n1)Cc1nn[nH]n1`, the inhibition is inactive: 4.24%. With `O=C(OC1CN2CCC1CC2)c1cccc(Cl)c1` (stereo not given), the inhibition was inactive: 1.36%. As for `O=[N+]([O-])c1ccc(O)c(/C=N/Nc2ccc([N+](=O)[O-])cc2[N+](=O)[O-])c1`, the figure is inactive: -0.939%; as for `CC(=O)NC(SC(=S)N(C)C)C(Cl)(Cl)Cl` (stereo not given), inactive: -9.66%. For `O=[As](O)(c1ccccc1)c1ccc(O)cc1` the value was inactive: 7.62%; for `C[C@H]1OP(=O)(Oc2ccccc2)[C@H](O)[C@H](O)[C@H]1N=[N+]=[N-]` (stereo not given in full), inactive: 3.91%; for `COc1ccc(N)c([N+](=O)[O-])c1[N+](=O)[O-]`, inactive: 6.89%. With `O=P(Nc1ccccn1)(c1ccc(Br)cc1)c1ccc(Br)cc1`, the inhibition was inactive: -15.8%. As for `CN(C)C1(CNC(=O)c2ccc(Cl)c(S(N)(=O)=O)c2)CCCCC1`, the figure is inactive: -14.3%. For `c1nnnn1CCn1cnnn1` the value was inactive: -0.532%. Regarding `CC(C)C(=O)NC(Sc1ccccc1)C(Cl)(Cl)Cl` (stereo not given), the inhibition was inactive: 6.22%. Take `O=P(Nc1nccs1)(c1ccccc1)c1ccccc1`: the inhibition was inactive: -6.46%. With `CC(=O)Nc1ccc([As](=O)(O)O)c(O)c1`, the inhibition was inactive: -24.8%. As for `CC(=O)Nc1ccc(Oc2c([N+](=O)[O-])cc([N+](=O)[O-])cc2[N+](=O)[O-])cc1`, the figure is inactive: -10%; as for `N#C/C(=C\c1ccc(N(CCBr)CCBr)cc1)C(N)=O`, inactive: 9.04%; as for `CC(=O)c1ccc(N2CC2c2ccncc2)cc1` (stereo not given), inactive: 9.31%.

Consider `COC(=O)C1(C)COP(=O)(NCc2ccccc2)OC1` (stereo not given), for which the inhibition is inactive: -12.2%. As for `Cc1ccccc1CN(C)C(=O)COC(=O)C(O)(c1ccccc1)c1ccccc1`, the inhibition is inactive: -16.9%. On to `C[C@@H]1C=CCP(=O)(Oc2ccccc2)O1` (stereo not given in full), for which the inhibition is inactive: -15%. Take `C[C@H]1OP(=O)(Oc2ccccc2)C[C@@H]2O[C@@H]21` (stereo not given in full): the inhibition was inactive: 8.59%.

As for `CCc1cc(O)c([N+](=O)[O-])c(C)c1[N+](=O)[O-]`, the inhibition is inactive: -13.2%. Consider `CC(C)(C)C(=O)NC(Sc1ccccc1)C(Cl)(Cl)Cl` (stereo not given), for which the inhibition is inactive: -15.9%.
